Patent US20260382623A1, “NOVEL COMPOUND FOR INHIBITING PROTEIN KINASES AND PHARMACEUTICAL COMPOSITION COMPRISING SAME” (published 2026)

Chains of the proteins cited; added tags and fusions are not shown. Residues count along the entry.
UniProt P07948, whole entry: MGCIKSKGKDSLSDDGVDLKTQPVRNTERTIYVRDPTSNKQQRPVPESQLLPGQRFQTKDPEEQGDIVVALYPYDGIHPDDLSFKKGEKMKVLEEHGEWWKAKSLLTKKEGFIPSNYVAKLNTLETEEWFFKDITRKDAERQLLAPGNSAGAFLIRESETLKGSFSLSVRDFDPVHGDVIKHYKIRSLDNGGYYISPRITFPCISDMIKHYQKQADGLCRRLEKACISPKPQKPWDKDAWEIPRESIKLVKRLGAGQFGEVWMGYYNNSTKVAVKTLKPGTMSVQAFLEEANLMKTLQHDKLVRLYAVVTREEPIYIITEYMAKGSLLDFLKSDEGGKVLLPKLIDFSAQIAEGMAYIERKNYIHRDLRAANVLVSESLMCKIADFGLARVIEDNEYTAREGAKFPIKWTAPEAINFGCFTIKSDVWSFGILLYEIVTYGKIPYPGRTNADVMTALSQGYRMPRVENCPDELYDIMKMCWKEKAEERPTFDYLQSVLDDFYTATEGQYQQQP
UniProt P22607, 23-806 limits assumed: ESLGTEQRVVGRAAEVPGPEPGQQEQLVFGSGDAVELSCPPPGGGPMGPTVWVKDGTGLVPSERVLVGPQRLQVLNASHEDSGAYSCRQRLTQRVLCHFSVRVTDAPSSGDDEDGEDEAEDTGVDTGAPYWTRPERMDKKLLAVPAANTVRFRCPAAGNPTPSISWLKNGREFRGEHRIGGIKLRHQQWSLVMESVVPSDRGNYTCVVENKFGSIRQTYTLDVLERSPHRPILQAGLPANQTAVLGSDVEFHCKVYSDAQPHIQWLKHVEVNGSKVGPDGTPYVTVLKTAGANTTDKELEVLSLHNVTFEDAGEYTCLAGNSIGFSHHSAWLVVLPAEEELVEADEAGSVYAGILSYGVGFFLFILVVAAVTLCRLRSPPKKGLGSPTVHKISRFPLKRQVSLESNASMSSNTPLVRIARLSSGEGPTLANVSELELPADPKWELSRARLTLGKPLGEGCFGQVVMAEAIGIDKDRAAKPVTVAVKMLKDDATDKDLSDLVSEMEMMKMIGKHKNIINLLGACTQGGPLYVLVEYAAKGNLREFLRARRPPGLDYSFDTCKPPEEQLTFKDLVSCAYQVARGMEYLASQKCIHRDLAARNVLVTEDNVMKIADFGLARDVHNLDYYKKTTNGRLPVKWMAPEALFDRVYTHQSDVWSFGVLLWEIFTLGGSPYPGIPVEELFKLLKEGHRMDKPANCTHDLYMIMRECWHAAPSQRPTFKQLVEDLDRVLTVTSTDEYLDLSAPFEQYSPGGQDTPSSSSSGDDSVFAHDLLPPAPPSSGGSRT
UniProt P29322, 28-1005 limits assumed: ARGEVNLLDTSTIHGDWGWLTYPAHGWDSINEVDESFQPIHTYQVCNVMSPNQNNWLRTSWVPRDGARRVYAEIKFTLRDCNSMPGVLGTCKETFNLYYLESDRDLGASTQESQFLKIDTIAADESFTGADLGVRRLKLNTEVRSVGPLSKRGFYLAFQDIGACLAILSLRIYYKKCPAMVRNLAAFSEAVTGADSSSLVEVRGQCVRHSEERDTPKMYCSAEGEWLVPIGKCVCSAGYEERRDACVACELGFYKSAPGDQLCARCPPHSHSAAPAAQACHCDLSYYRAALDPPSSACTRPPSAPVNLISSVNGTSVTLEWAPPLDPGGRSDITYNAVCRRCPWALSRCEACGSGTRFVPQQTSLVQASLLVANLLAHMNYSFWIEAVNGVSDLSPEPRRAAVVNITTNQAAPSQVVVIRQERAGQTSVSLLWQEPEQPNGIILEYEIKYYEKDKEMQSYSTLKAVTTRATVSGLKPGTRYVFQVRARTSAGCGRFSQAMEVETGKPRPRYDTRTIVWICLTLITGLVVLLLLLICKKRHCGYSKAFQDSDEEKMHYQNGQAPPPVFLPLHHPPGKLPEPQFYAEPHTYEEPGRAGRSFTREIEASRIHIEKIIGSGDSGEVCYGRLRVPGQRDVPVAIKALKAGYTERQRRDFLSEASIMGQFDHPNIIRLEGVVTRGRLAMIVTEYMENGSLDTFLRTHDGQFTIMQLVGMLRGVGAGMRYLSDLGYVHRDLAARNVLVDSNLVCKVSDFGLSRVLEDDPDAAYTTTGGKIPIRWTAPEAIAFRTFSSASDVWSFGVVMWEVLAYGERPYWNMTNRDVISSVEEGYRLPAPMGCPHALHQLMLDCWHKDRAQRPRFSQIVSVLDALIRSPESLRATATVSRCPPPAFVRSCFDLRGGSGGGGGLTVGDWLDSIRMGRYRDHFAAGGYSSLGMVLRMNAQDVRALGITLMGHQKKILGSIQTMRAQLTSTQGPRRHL
UniProt Q06187, whole entry: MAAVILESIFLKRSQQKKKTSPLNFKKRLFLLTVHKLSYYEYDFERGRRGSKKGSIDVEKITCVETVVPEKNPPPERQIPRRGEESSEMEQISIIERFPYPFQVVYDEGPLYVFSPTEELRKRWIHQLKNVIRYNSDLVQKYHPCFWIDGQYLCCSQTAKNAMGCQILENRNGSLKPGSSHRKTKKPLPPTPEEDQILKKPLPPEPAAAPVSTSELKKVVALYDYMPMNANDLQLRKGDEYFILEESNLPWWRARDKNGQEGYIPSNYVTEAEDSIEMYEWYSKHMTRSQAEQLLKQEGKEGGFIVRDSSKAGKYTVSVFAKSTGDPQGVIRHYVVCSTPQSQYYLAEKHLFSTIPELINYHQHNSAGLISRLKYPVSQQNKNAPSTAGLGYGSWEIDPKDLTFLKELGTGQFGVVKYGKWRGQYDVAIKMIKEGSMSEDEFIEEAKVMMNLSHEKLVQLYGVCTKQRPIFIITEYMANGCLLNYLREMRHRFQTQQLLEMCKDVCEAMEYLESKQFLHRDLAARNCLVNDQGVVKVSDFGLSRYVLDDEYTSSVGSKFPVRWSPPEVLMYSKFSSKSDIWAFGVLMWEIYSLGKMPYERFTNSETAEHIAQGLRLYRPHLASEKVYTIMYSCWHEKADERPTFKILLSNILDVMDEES
UniProt Q15569, whole entry: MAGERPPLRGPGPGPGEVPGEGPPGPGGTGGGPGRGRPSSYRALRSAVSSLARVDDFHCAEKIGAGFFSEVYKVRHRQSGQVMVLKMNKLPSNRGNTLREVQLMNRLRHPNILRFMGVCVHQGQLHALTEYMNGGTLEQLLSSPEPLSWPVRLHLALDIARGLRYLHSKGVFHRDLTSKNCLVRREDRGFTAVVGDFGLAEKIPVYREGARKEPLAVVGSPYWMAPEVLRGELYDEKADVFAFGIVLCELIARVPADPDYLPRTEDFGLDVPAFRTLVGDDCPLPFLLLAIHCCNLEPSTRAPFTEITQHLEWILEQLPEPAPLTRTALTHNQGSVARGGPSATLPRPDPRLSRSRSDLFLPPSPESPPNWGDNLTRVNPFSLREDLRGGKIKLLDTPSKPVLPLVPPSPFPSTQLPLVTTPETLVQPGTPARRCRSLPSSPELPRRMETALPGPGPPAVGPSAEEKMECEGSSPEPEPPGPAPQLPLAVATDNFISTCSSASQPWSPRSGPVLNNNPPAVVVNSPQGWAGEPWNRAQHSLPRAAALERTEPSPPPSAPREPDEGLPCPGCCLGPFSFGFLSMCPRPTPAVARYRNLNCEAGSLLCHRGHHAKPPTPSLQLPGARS
UniProt Q99759, whole entry: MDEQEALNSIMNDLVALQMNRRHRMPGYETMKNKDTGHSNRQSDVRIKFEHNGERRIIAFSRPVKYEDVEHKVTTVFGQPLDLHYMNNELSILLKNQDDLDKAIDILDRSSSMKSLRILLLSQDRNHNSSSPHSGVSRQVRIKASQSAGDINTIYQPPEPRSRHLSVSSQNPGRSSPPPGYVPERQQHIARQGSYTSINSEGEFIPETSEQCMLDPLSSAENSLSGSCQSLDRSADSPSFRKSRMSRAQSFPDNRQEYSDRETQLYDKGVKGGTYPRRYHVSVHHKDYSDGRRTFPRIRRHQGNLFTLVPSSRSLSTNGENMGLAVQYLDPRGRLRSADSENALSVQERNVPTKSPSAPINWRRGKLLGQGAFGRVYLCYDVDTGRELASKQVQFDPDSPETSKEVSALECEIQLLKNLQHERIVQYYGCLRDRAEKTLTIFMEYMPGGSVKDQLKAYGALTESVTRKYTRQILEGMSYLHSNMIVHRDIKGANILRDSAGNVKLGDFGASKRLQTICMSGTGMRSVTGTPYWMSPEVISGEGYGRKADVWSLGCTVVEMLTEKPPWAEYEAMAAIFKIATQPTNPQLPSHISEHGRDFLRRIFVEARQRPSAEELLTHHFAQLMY
UniProt Q9UF33, 23-1036 limits assumed: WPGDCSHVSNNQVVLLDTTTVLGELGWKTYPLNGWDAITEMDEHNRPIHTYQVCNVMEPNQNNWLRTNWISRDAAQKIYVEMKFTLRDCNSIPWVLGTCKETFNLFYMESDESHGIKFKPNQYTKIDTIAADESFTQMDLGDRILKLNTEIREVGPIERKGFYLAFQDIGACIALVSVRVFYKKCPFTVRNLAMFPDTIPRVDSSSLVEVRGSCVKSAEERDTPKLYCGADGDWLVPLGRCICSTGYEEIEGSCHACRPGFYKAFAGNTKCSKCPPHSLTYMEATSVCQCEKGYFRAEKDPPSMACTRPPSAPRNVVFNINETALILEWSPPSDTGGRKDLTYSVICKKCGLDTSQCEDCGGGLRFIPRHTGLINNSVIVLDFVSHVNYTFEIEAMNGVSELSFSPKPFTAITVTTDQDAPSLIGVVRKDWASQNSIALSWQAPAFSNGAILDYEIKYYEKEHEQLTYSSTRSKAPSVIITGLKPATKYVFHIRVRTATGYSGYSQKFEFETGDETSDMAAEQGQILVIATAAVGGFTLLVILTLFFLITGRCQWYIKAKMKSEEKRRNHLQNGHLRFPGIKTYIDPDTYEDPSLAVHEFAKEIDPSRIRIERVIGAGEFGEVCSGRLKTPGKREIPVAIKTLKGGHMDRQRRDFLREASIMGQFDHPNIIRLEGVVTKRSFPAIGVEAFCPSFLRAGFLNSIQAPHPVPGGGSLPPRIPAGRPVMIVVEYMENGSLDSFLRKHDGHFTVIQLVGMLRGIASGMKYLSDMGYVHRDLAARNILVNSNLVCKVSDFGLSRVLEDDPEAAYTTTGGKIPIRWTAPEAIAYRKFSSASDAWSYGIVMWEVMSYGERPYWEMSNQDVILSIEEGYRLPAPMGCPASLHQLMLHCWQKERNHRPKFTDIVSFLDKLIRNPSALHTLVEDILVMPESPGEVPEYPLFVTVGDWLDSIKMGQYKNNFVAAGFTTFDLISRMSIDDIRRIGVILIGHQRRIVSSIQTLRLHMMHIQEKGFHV
UniProt Q9Y2K2, whole entry: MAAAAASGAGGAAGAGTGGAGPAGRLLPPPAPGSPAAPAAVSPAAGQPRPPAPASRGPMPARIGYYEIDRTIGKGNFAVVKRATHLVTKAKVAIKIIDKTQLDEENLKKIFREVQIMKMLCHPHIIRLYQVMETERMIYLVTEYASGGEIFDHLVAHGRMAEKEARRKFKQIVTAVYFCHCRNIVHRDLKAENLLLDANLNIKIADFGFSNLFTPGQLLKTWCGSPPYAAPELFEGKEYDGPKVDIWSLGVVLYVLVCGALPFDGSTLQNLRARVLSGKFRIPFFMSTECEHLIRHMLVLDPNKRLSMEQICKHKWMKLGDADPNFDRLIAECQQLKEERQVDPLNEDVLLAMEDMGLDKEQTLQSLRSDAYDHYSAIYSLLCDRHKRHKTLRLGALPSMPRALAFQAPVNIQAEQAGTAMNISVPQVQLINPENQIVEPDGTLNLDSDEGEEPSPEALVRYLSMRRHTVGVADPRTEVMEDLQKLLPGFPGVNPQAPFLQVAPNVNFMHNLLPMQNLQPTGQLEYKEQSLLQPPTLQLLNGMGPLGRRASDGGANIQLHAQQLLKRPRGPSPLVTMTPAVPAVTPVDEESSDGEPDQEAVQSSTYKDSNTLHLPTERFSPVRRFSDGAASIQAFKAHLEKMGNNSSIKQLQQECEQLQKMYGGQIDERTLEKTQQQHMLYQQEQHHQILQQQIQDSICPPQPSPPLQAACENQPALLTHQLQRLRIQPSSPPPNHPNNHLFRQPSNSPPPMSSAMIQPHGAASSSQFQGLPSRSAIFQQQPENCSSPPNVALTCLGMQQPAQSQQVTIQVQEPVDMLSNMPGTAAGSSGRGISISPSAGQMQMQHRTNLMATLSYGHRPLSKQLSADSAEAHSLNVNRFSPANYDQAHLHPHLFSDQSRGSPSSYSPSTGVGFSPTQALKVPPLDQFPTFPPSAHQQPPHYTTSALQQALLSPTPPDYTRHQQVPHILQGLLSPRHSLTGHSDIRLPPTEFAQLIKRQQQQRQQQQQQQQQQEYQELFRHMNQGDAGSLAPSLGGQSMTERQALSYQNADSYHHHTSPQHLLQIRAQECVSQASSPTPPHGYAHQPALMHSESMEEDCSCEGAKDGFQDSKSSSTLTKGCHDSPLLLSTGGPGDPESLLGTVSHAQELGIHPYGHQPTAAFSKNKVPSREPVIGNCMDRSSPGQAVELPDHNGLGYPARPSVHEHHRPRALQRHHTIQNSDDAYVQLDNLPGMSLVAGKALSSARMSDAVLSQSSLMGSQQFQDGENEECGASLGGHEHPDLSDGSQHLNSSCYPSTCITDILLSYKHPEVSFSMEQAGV

Columns and labels:
[1] = tested on: DLD-1; experiment: Cell growth inhibition, DLD-1 (CCK-8); details: read-out: Cell growth inhibition GI50, DLD-1, 72 hours
[2] = tested on: SW620; experiment: Cell growth inhibition, SW620 (CCK-8); details: read-out: Cell growth inhibition GI50, SW620, 72 hours
[3] = biological target: RET (Homo sapiens, UniProt P07949); experiment: Kinase panel inhibition, RET; details: 1 μM
[4] = biological target: full kinase panel (Homo sapiens, UniProt O95819); experiment: Full kinase panel inhibition by Example compounds 8 and 51 at 1 μM (Tables 11 to 14; kinase named in each table line); details: HGK/MAP4K4
[5] = biological target: full kinase panel (Homo sapiens, UniProt P00519); experiment: as above; details: ABL1
[6] = biological target: full kinase panel (Homo sapiens, UniProt P00533); experiment: as above; details: EGFR
[7] = biological target: full kinase panel (Homo sapiens, UniProt P07948); experiment: as above; details: LYN
[8] = biological target: full kinase panel (Homo sapiens, UniProt P08631); experiment: as above; details: HCK
[9] = biological target: full kinase panel (Homo sapiens, UniProt P09769); experiment: as above; details: FGR
[10] = biological target: full kinase panel (Homo sapiens, UniProt P10398); experiment: as above; details: ARAF
[11] = biological target: full kinase panel (Homo sapiens, UniProt P15056); experiment: as above; details: BRAF
[12] = biological target: full kinase panel (Homo sapiens, UniProt P22455); experiment: as above; details: FGFR4
[13] = biological target: full kinase panel (Homo sapiens, UniProt P22607); experiment: as above; details: FGFR3
[14] = biological target: full kinase panel (Homo sapiens, UniProt P29322); experiment: as above; details: EPHA8
[15] = biological target: full kinase panel (Homo sapiens, UniProt P29597); experiment: as above; details: TYK2
[16] = biological target: full kinase panel (Homo sapiens, UniProt P35916); experiment: as above; details: FLT4/VEGFR3
[17] = biological target: full kinase panel (Homo sapiens, UniProt P36888); experiment: as above; details: FLT3
[18] = biological target: full kinase panel (Homo sapiens, UniProt P41240); experiment: as above; details: CSK
[19] = biological target: full kinase panel (Homo sapiens, UniProt P42680); experiment: as above; details: TEC
[20] = biological target: full kinase panel (Homo sapiens, UniProt P42684); experiment: as above; details: ABL2/ARG
[21] = biological target: full kinase panel (Homo sapiens, UniProt P51813); experiment: as above; details: BMX/ETK
[22] = biological target: full kinase panel (Homo sapiens, UniProt P54753); experiment: as above; details: EPHB3
[23] = biological target: full kinase panel (Homo sapiens, UniProt P57059); experiment: as above; details: SIK1
[24] = biological target: full kinase panel (Homo sapiens, UniProt Q02763); experiment: as above; details: TIE2/TEK
[25] = biological target: full kinase panel (Homo sapiens, UniProt Q06187); experiment: as above; details: BTK
[26] = biological target: full kinase panel (Homo sapiens, UniProt Q07912); experiment: as above; details: ACK1
[27] = biological target: full kinase panel (Homo sapiens, UniProt Q12851); experiment: as above; details: GCK/MAP4K2
[28] = biological target: full kinase panel (Homo sapiens, UniProt Q13163); experiment: as above; details: MEK5
[29] = biological target: full kinase panel (Homo sapiens, UniProt Q15569); experiment: as above; details: TESK1
[30] = biological target: full kinase panel (Homo sapiens, UniProt Q16288); experiment: as above; details: TRKC
[31] = biological target: full kinase panel (Homo sapiens, UniProt Q16832); experiment: as above; details: DDR2
[32] = biological target: full kinase panel (Homo sapiens, UniProt Q56UN5); experiment: as above; details: YSK4/MAP3K19
[33] = biological target: full kinase panel (Homo sapiens, UniProt Q92918); experiment: as above; details: HPK1/MAP4K1
[34] = biological target: full kinase panel (Homo sapiens, UniProt Q99759); experiment: as above; details: MEKK3
[35] = biological target: full kinase panel (Homo sapiens, UniProt Q9NY57); experiment: as above; details: STK32B/YANK2
[36] = biological target: full kinase panel (Homo sapiens, UniProt Q9UF33); experiment: as above; details: EPHA6
[37] = biological target: full kinase panel (Homo sapiens, UniProt Q9UL54); experiment: as above; details: TAOK2/TAO1
[38] = biological target: full kinase panel (Homo sapiens, UniProt Q9Y2K2); experiment: as above; details: SIK3
[39] = biological target: full kinase panel (Homo sapiens, UniProt Q9Y4K4); experiment: as above; details: KHS/MAP4K5
[40] = tested on: full kinase panel; experiment: as above; details: LYN B

## Cc1ccc(Nc2ncc3c(n2)C2(CC2)C(=O)N(c2cc(NC(=O)c4cccc(C(F)(F)F)c4)ccc2C)C3)cn1
[1]
  GI50: < 5 µM
[2]
  GI50: < 5 µM
[3]
  kinase inhibition (residual enzyme activity): ◯ (residual enzyme activity values were 40% or less, i.e., inhibited by 60% or more)
[4]
  kinase inhibition (residual enzyme activity): ◯ (residual enzyme activity values were 40% or less, i.e., inhibited by 60% or more)
[5]
  kinase inhibition (residual enzyme activity): ◯ (residual enzyme activity values were 40% or less, i.e., inhibited by 60% or more)
[6]
  kinase inhibition (residual enzyme activity): ◯ (residual enzyme activity values were 40% or less, i.e., inhibited by 60% or more)
[7]
  kinase inhibition (residual enzyme activity): ◯ (residual enzyme activity values were 40% or less, i.e., inhibited by 60% or more)
[8]
  kinase inhibition (residual enzyme activity): ◯ (residual enzyme activity values were 40% or less, i.e., inhibited by 60% or more)
[9]
  kinase inhibition (residual enzyme activity): ◯ (residual enzyme activity values were 40% or less, i.e., inhibited by 60% or more)
[10]
  kinase inhibition (residual enzyme activity): ◯ (residual enzyme activity values were 40% or less, i.e., inhibited by 60% or more)
[11]
  kinase inhibition (residual enzyme activity): ◯ (residual enzyme activity values were 40% or less, i.e., inhibited by 60% or more)
[12]
  kinase inhibition (residual enzyme activity): ◯ (residual enzyme activity values were 40% or less, i.e., inhibited by 60% or more)
[13]
  kinase inhibition (residual enzyme activity): ◯ (residual enzyme activity values were 40% or less, i.e., inhibited by 60% or more)
[14]
  kinase inhibition (residual enzyme activity): ◯ (residual enzyme activity values were 40% or less, i.e., inhibited by 60% or more)
[15]
  kinase inhibition (residual enzyme activity): ◯ (residual enzyme activity values were 40% or less, i.e., inhibited by 60% or more)
[16]
  kinase inhibition (residual enzyme activity): ◯ (residual enzyme activity values were 40% or less, i.e., inhibited by 60% or more)
[17]
  kinase inhibition (residual enzyme activity): ◯ (residual enzyme activity values were 40% or less, i.e., inhibited by 60% or more)
[18]
  kinase inhibition (residual enzyme activity): ◯ (residual enzyme activity values were 40% or less, i.e., inhibited by 60% or more)
[19]
  kinase inhibition (residual enzyme activity): ◯ (residual enzyme activity values were 40% or less, i.e., inhibited by 60% or more)
[20]
  kinase inhibition (residual enzyme activity): ◯ (residual enzyme activity values were 40% or less, i.e., inhibited by 60% or more)
[21]
  kinase inhibition (residual enzyme activity): ◯ (residual enzyme activity values were 40% or less, i.e., inhibited by 60% or more)
[22]
  kinase inhibition (residual enzyme activity): ◯ (residual enzyme activity values were 40% or less, i.e., inhibited by 60% or more)
[23]
  kinase inhibition (residual enzyme activity): ◯ (residual enzyme activity values were 40% or less, i.e., inhibited by 60% or more)
[24]
  kinase inhibition (residual enzyme activity): ◯ (residual enzyme activity values were 40% or less, i.e., inhibited by 60% or more)
[25]
  kinase inhibition (residual enzyme activity): ◯ (residual enzyme activity values were 40% or less, i.e., inhibited by 60% or more)
[26]
  kinase inhibition (residual enzyme activity): ◯ (residual enzyme activity values were 40% or less, i.e., inhibited by 60% or more)
[27]
  kinase inhibition (residual enzyme activity): ◯ (residual enzyme activity values were 40% or less, i.e., inhibited by 60% or more)
[28]
  kinase inhibition (residual enzyme activity): ◯ (residual enzyme activity values were 40% or less, i.e., inhibited by 60% or more)
[29]
  kinase inhibition (residual enzyme activity): ◯ (residual enzyme activity values were 40% or less, i.e., inhibited by 60% or more)
[30]
  kinase inhibition (residual enzyme activity): ◯ (residual enzyme activity values were 40% or less, i.e., inhibited by 60% or more)
[31]
  kinase inhibition (residual enzyme activity): ◯ (residual enzyme activity values were 40% or less, i.e., inhibited by 60% or more)
[32]
  kinase inhibition (residual enzyme activity): ◯ (residual enzyme activity values were 40% or less, i.e., inhibited by 60% or more)
[33]
  kinase inhibition (residual enzyme activity): ◯ (residual enzyme activity values were 40% or less, i.e., inhibited by 60% or more)
[34]
  kinase inhibition (residual enzyme activity): ◯ (residual enzyme activity values were 40% or less, i.e., inhibited by 60% or more)
[35]
  kinase inhibition (residual enzyme activity): ◯ (residual enzyme activity values were 40% or less, i.e., inhibited by 60% or more)
[36]
  kinase inhibition (residual enzyme activity): ◯ (residual enzyme activity values were 40% or less, i.e., inhibited by 60% or more)
[37]
  kinase inhibition (residual enzyme activity): ◯ (residual enzyme activity values were 40% or less, i.e., inhibited by 60% or more)
[38]
  kinase inhibition (residual enzyme activity): ◯ (residual enzyme activity values were 40% or less, i.e., inhibited by 60% or more)
[39]
  kinase inhibition (residual enzyme activity): ◯ (residual enzyme activity values were 40% or less, i.e., inhibited by 60% or more)
[40]
  kinase inhibition (residual enzyme activity): ◯ (residual enzyme activity values were 40% or less, i.e., inhibited by 60% or more)
